Assays:
Mu-type opioid receptor [1] = molecular target: T1, Mu-type opioid receptor (Homo sapiens, UniProt P35372); assay: Displacement of [3H]DAMGO from human MOR expressed in CHO cell membranes after 60 mins
Mu-type opioid receptor [2] = molecular target: T1, Mu-type opioid receptor; assay: Agonist activity at human MOR expressed in CHO cell membranes after 60 mins by [35S]GTP-gamma-S binding assay
Procedure, shortened: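 [35S]GTP-γ-S binding read-out of G-protein activation. Each compound assayed three times, with values given as mean ± standard error of the mean.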

Protein sequences, listed by entry. Tags and fused reporters are not part of them.
UniProt P35372, whole entry: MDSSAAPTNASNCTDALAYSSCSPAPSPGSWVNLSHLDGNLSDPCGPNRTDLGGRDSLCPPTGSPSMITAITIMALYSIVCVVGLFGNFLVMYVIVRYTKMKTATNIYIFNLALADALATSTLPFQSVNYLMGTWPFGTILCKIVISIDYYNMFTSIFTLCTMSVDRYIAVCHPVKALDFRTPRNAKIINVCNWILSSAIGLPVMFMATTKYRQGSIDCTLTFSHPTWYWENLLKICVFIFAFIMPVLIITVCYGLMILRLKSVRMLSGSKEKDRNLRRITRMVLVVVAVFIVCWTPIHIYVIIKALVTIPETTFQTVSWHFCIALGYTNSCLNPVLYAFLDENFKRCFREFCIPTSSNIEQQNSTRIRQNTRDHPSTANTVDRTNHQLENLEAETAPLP

Mu-type opioid receptor [3] = molecular target: T1, Mu-type opioid receptor; assay: Displacement of [3H]naloxone from human MOR expressed in CHO-K1 cell membranes after 60 mins by microbeta scintillation counting method; format: cell-based

CN(C)C[C@H]1CCCC[C@]1(O)c1cccc(O)c1 (racemic) [O-DESMETHYL TRAMADOL]
Ki (Mu-type opioid receptor [1]): 13 nM | EC50 (Mu-type opioid receptor [2]): 240 nM | Ki (Mu-type opioid receptor [3]): 11 nM
